Source: PubChem BioAssay (NCI)
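The compound was tested at five concentrations on cells cultured in 96-well plates, with a 48-hour exposure period. At the GI50, growth is halved. The concentration for full growth arrest is given as TGI.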

What was measured:
Assay in all cases: growth of human tumour cells (NCI), 48 h
UACC-257 melanoma = tested on: UACC-257 melanoma
HOP-92 NSCLC = tested on: HOP-92 NSCLC
NCI-H23 lung = tested on: NCI-H23 lung
NCI-H226 lung = tested on: NCI-H226 lung

In the case of Cn1cnc(N)c1C(=N)[Se], the GI50 (UACC-257 melanoma) is reported as 4.86 µM, the TGI (UACC-257 melanoma) is reported as > 100 µM and the GI50 (HOP-92 NSCLC) is reported as 75.1 µM. For the same compound, the TGI (HOP-92 NSCLC) was > 100 µM, the GI50 (NCI-H23 lung) was 2.67 µM and the TGI (NCI-H23 lung) was 6.53 µM. For the same compound, the GI50 (NCI-H226 lung) was 6.12 µM and the TGI (NCI-H226 lung) was > 100 µM.
